Assay results as given in patent US20090203750A1, “5-HT2C Receptor Agonists as Anorectic Agents” (priority 2005, published 2009).

Sequences of proteins named here, by UniProt entry; tags and fusion partners are left off. Residues count along the entry.
UniProt P41595, whole entry: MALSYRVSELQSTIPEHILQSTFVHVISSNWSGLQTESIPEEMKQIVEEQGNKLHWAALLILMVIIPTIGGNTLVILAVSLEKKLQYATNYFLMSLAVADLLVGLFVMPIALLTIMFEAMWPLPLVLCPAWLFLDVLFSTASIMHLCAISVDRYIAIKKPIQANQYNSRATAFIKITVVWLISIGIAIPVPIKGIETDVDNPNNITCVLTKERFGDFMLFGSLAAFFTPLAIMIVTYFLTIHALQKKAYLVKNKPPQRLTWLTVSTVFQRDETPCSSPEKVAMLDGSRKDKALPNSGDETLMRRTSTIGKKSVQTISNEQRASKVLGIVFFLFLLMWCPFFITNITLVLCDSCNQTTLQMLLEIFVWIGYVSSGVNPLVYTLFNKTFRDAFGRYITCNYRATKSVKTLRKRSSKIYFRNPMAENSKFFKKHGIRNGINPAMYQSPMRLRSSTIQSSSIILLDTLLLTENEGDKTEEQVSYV
UniProt P28335, 33-458: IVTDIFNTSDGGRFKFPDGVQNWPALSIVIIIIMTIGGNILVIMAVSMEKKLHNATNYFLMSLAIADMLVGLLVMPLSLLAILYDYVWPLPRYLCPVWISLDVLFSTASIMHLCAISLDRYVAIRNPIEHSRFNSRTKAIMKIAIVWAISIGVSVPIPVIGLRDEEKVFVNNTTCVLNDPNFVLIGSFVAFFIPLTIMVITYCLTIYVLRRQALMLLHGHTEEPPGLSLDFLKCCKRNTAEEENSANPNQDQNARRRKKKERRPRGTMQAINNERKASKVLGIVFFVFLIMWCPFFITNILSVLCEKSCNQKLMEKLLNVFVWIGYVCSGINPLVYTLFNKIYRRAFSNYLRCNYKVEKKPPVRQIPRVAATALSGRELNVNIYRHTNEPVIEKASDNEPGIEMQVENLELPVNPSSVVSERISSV

Key:
[1] = biological target: T1, human 5-HT2B receptor (Homo sapiens, UniProt P41595); test: Functional activity by Ca++-flux (intracellular calcium mobilization), 5-HT2B; assay type: cell-based; conditions: HEK-293 cells, NA = not active
T1 construct: expressed in transfected cells; host or cells: HEK293 (ATCC CRL-1573), retroviral infection with pBabepuro-FLAG-h5-HT2BR, polyclonal line

[2] = biological target: T2, human 5-HT2C receptor (Homo sapiens, UniProt P28335); test: Functional activity by Ca++-flux (intracellular calcium mobilization), 5-HT2C; assay type: cell-based
T2 construct: expressed in transfected cells; host or cells: HEK-293
Description: The functional activity of the compounds for the human 5-HT2A, human 5-HT2B, and human 5-HT2C receptors is determined by measurement of Ca++-flux as detailed in the Examples, in transiently transfected HEK-293 cells and the results are summarized in Table I. Structures of compounds listed in Table I are given in Scheme 15.
The functional activity of compounds for the human 5-HT2A, human 5-HT2B, and human 5-HT2C receptors as agonists, partial agonists and antagonists is determined by measurement of Ca++-flux. The results are summarized in Table 1 where EC50 for different receptors are given (nM) and the ratio of activities 2A/2C and 2B/2C are also given. As noted above, other methods for assessing agonist/antagonist function of compounds for 5-HT2 family receptors are known in the art.
For these studies stably expressing lines of h5-HT2A, h5-HT2B, and h5-HT2C receptors are prepared in HEK-293 cells. For the h5-HT2A and h5-HT2C-INI receptors, stably expressing HEK-293 cell lines were constructed as previously described using a pIRES-NEO vector system (See: Rauser et al, J Pharmacol Exp Ther 299: 83-89, 2001).
Stable cell lines were plated with ˜40,000 cells/well into uncoated (3T3 cells) or poly-L-lysine coated (HEK293 cells) 96-well plates in DMEM supplemented with 5% dialyzed FBS. 16-24 hrs post-plating, the medium was aspirated and replaced with 30 μl/well of Calcium Assay Kit Component A Dye (Molecular Devices; Sunnyvale, Calif.) dissolved in 30 ml/bottle of assay buffer (2.5 mM probenecid, 20 mM Hepes, and 1× Hanks' Balanced Salt Solution (Invitrogen; Carlsbad, Calif.) (138 mM NaCl, 5.3 mM KCl, 1.3 mM CaCl2, 0.49 mM MgCl2, 0.41 mM MgSO4, 0.44 mM KH2PO4, 0.34 mM Na2HPO4) pH 7.4. Plates were incubated in the dye for 1 hr at 37° C. Dilutions were made in assay buffer as 2× stocks and added to 96-well drug plates. Fluorometric imaging was performed using a FlexStation II plate reader (Molecular Devices) reading the plate at 1.5 second intervals for 1 min. After establishing a fluorescent baseline (excitation at 485 nm and emission at 525 nm, using a […] cutoff), the FlexStation II automatically transferred 30 μl of 2× drug stocks from the drug plate to the cell plate at the 20 second time point with reading for another 40 seconds. Peak relative fluorescence units (RFU) were subtracted from baseline RFUs using SoftMax Pro (Molecular Devices) and values were imported into GraphPad Prism version 4.03 (GraphPad Software; San Diego, Calif.) for analysis. Ca++-flux studies are very convenient for initial screening of large numbers of compounds for agonist activity.
Compounds are resuspended in DMSO at a stock concentration of 2-15 mM and, for a typical agonist screen, are diluted in assay buffer to a final 2× concentration of 20 μM into drugs plates. […]

trans-(±)-[2-(4-Fluoro-phenyl)-cyclopropyl]-methylamine Hydrochloride [TKU-II-90]
EC50 [1]: 7.1 nM | activity at 5-HT2C receptor [2]: good potency | EC50 ([2]; Ca++-flux, HEK-293 cells, NA = not active): 7.4 nM | 2A/2C ratio ([2]; ratio of EC50 5-HT2A / 5-HT2C): 0.96 | 2B/2C ratio ([2]; ratio of EC50 5-HT2B / 5-HT2C): 0.96
